The conditions of data set [1]: at 90 g/L, 35/65 v/v EtOH/water.
For data set [2] the following is noted: for Hygroscopicity, wt increase: up to 95% RH (summary table); for water gain: isothermal 25° C.
The conditions of data set [3]: 90% RH chamber for 2 weeks.

Where two headings read alike, the source gives them in different places.

In the case of `COc1ccc(NC(=O)c2ccc(C(=N)N(C)C)cc2)c(C(=O)Nc2ccc(Cl)cn2)c1` [Form I, reference compound], in data set [1], the saturation temperature result was “about 47 °C”. In data set [2] (listed as Betrixaban Maleate Form I), the “Hygroscopicity, wt increase” value is “Low (0.1% wt increase”. Also, the water gain in data set [2] (up to 95% RH, FIG. 15, listed as polymorph of the '276 patent) is listed as 0.07%.

On to `COc1ccc(NC(=O)c2ccc(C(=N)N(C)C)cc2)c(C(=O)Nc2ccc(Cl)cn2)c1` [Form II], for which, in data set [3], the “XRPD pattern after humidity storage vs original sample” value is reported as “same XRPD pattern as”. Besides, the “XRPD pattern before and after vapor sorption analysis” value in data set [2] (1% to 95% RH, Form II crystallized from dry ethanol) is listed as “Identical XRPD pattern”. Further, the water absorbed result in data set [2] (at 95% RH) is given as “up to 1%”. In addition, the Water intake entry in data set [2] (at 95% RH, Form II prepared from 25:75 ethanol/water through Form III, FIG. 15) was “about 1%”. In addition, the “Hygroscopicity, wt increase” value in data set [2] (listed as Betrixaban Maleate Form II) was “Moderate (1% wt increase”. This compound also registered a water gain in data set [2] (up to 95% RH, FIG. 15) of 1%. The “Hygroscopicity, water adsorbed” value in data set [2] (up to 95% RH, Example 2 sample) is given as ~1 wt % water up to 95%. For the same compound, in data set [2] (up to 95% RH, Form II crystallized from dry ethanol, FIG. 8), the water adsorbed is reported as 0.6%.

These data come from US8946269B2, “Crystalline forms of a factor Xa inhibitor” (Portola Pharmaceuticals, Inc., priority 2010, dated 2015).
